# Assay results taken from patent publication US20250221966A1, “RXFP1 AGONISTS” (BRISTOL-MYERS SQUIBB COMPANY, priority 2021, published 2025).
# By UniProt entry, the sequences of proteins in these tests, tags left out.
# UniProt Q9HBX9, whole entry: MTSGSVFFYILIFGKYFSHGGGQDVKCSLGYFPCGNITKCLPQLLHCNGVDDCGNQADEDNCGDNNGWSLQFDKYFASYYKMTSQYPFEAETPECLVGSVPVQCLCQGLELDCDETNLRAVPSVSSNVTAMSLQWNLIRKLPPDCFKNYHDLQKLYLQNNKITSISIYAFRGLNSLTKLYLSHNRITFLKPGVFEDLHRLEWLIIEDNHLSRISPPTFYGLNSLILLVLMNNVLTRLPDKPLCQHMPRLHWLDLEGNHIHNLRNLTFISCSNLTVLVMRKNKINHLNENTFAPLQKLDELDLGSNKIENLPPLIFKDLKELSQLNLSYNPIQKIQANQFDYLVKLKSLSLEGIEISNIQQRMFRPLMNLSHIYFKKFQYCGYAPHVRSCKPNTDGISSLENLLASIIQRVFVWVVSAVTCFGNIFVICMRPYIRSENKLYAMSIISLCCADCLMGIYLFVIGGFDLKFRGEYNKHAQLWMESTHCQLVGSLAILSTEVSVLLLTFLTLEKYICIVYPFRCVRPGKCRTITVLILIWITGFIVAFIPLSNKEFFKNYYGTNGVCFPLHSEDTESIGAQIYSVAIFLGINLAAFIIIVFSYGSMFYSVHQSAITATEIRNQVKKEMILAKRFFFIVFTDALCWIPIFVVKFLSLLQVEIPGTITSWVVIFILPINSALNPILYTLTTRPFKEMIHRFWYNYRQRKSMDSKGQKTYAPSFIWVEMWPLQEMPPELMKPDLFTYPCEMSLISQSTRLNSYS
# Biological target: human RXFP1 (Homo sapiens, UniProt Q9HBX9)
# Assay: RXFP1 cAMP assay (hRXFP1 HEK293 cAMP assay, HTRF)
# Conditions: read-out: cAMP hRXFP1 HEK293 Assay EC50, HEK293 cells stably expressing human RXFP1, 30 min at room temperature
row,EC50 [nM],Structure (SMILES)
1,4.5,"COc1cc(C)c(C2=NOC3CC(O)CC23)cc1C(=O)N[C@H]1[C@@H](C(=O)Nc2ccc(F)c(C(F)(F)F)c2)[C@H]2CC[C@@H]1/C2=C\C1CC1 (single isomer, unassigned) [471]"
2,2.2,"COc1ccc(C2=NOC3CN(C(=O)CO)CC23)cc1C(=O)N[C@H]1[C@@H](C(=O)Nc2ccc(F)c(C(F)(F)F)c2)[C@H]2CC[C@@H]1/C2=C\C1CC1 (single isomer, unassigned)"
3,85,COc1ccc(C2=NO[C@H]3C[C@@H](O)C[C@@H]23)cc1C(=O)N[C@@H]1C2CCC(/C2=C/C(F)(F)F)[C@@H]1C(=O)Nc1ccc(F)c(C(F)(F)F)c1 (some centres unmarked)
4,0.4,"COc1c(F)cc(C2=NOC3CC(C)(CO)CC23)cc1C(=O)N[C@H]1[C@@H](C(=O)N[C@H](C)C2(C)CC2)[C@H]2CC[C@@H]1/C2=C\C1CC1 (single isomer, unassigned)"
5,1100,CC(C)=C1C2CCC1[C@H](C(=O)Nc1ccc(F)c(C(F)(F)F)c1)[C@@H]2NC(=O)c1cc(C#N)ccc1F (some centres unmarked)
6,5,COc1ccc(-c2cc(C(NC(=O)c3cccc(Cl)c3)C(=O)O)ccc2F)cc1C(=O)N[C@@H]1C2CCC(/C2=C/C(F)(F)F)[C@@H]1C(=O)Nc1ccc(F)c(C(F)(F)F)c1 (some centres unmarked)
7,77,COc1cc(F)c(F)cc1C(=O)N[C@@H]1C2CCC(C2=Cc2cccc(OC(F)(F)F)c2)[C@@H]1C(=O)Nc1ccc(F)c(C(F)(F)F)c1 (some centres unmarked)
8,707,COc1ccc(-c2cc[nH]n2)cc1C(=O)NC1C2CCC(C2=CC(F)(F)F)C1C(=O)Nc1ccc(F)c(C(F)(F)F)c1 (centres unmarked)
